Values quoted from earlier work in PMC9668914, “Understanding VPAC receptor family peptide binding and selectivity” (Nature Communications, 2022).

By UniProt entry, the sequences of proteins in these tests, tags left out. Residues count along the entry.
UniProt P32241, 31-457: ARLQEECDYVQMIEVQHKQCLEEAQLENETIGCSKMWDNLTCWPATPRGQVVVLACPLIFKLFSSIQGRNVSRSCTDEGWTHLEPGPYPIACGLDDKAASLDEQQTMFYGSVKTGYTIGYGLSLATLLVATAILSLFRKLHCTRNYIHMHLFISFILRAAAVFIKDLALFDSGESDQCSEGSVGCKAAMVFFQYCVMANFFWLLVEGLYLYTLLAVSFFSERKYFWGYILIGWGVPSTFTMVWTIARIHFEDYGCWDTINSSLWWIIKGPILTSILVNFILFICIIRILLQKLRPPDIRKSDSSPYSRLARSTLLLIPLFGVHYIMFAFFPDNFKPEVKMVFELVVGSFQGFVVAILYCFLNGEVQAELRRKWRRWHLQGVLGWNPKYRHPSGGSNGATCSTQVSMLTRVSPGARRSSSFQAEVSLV

Columns and labels:
VPAC1R = VPAC1R (Homo sapiens, UniProt P32241); settings: cited from earlier work
PAC1R = molecular target: T1, PAC1R (Homo sapiens, UniProt P41586); set-up: method as in PMID 19109992; settings: cited from earlier work
T1 construct: An HA signal peptide was inserted in place of the native signal peptide of the receptors; HA signal peptide (replaces the native signal peptide) (N); 3C protease cleavage sites (between FLAG and receptor, and between receptor and His) (internal); expressed in transfected cells; host or cells: COS-7 (transient, PEI)
T1 sequence (P41586 21-468): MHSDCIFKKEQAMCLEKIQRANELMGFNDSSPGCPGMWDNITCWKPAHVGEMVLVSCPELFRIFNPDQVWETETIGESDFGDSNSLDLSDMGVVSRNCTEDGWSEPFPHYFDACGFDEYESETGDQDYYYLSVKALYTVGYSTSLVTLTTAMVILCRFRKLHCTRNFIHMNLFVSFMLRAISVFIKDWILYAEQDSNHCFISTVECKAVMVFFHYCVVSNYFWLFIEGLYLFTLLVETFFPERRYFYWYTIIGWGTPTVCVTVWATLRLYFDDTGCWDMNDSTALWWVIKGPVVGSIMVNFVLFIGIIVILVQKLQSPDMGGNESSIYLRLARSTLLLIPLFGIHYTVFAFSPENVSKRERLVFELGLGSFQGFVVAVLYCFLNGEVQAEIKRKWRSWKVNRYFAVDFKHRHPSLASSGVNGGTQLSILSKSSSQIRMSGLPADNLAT

pituitary adenylate cyclase-activating polypeptide [PACAP]
VPAC1R affinity (VPAC1R): high affinity
affinity for PAC1R relative to VIP, higher (PAC1R): approximately 1000 fold
